# Yeast mating assay 1: variants of the scFv Ab-14

The measurements come from Engelhart et al. 2022 (doi:10.1038/s41597-022-01779-4) through the FLAb antibody collection.

Antigen: PDVDLGDISGINAS, a 14-residue peptide of the SARS-CoV-2 spike HR2 region.

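The parent was found by panning a naive human phage display library on the peptide. Library AAYL49 holds single substitutions and randomly drawn double and triple substitutions in the CDRs. The assay is AlphaSeq: two haploid yeast populations carry antibody and antigen on their surface. Binding brings cells together so that they mate, and sequencing counts the barcode pairs among the diploids. The ratio of observed to expected reads was calibrated, replicate by replicate, on BCL2-family standards whose Kd was known from biolayer interferometry. There are three technical replicates.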

Parent: Ab-14, a human scFv built as VH, the linker GGGGSGGGGSGGGGS, VL. Only the CDRs of the heavy chain vary.
VH: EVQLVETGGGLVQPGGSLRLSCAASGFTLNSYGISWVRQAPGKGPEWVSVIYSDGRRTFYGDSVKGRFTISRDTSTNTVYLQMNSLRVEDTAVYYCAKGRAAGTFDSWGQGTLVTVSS
VL: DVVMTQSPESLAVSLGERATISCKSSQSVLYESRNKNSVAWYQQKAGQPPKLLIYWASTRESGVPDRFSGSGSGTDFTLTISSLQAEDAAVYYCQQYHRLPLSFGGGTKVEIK

Substitutions are numbered in sequence along the VH above, starting at 1 (not Kabat).
This list gathers variants with a substitution at G55 (VH, numbered from residue 1).
Values are log10 of the apparent Kd in nM; lower means stronger binding.
"nd" marks a missing value. The strain was present, yet no cells mated with the target were sequenced in that replicate, which points to weak or no binding.
In this assay the parent's reference entry averaged 0.65; its copy inside this library read 4.11 (one replicate of three).
Three control strains display no target. For library AAYL49, 15% of the pairings with them gave a signal, with a median of 4.06 and one signal in twenty below 2.83, so weak values seen in few replicates may be background. For each scFv, signals with the empty controls are counted beside the result.

G55W+G61L: nd, nd, nd (controls 2 of 9).
D54H+G55M+V64S: nd, nd, nd (controls 0 of 9).
I51E+D54A+G55K: nd, nd, nd (controls 0 of 9).
G55Q+R57C+Y60N: nd, nd, 5.05 (controls 2 of 9).
F27I+Y32L+G55A: nd, nd, 2.34 (controls 0 of 9).
S31Y+G55W+K65W: nd, 3.40, 4.76 (controls 7 of 9).
V50S+G55A+V64R: 3.87, nd, 3.97 (controls 3 of 9).
G55V+F105Y: nd, nd, nd (controls 0 of 9).
G26V+G55F+R57N: nd, nd, nd (controls 1 of 9).
G55A+R56T+S107N: nd, nd, nd (controls 0 of 9).
T28E+G55P+G61R: 3.96, nd, nd (controls 2 of 9).
G55N+T104Q: nd, nd, nd (controls 1 of 9).
G55E+R57D+G61S: nd, nd, nd (controls 0 of 9).
S31A+G55S+D106P: 4.93, 5.46, 5.23 (controls 5 of 9).
G55H+R57M+R100M: nd, nd, nd (controls 0 of 9).
G55H+A101F+F105R: nd, 3.08, 5.10 (controls 3 of 9).
Y32H+G55K+T58H: nd, 3.65, nd (controls 1 of 9).
G55Q: nd, nd, nd (controls 1 of 9).
S35Y+G55K+A102V: nd, nd, 3.43 (controls 0 of 9).
F27H+D54R+G55Q: 4.37, nd, 5.31 (controls 3 of 9).
L29W+G55I+D62A: nd, 4.71, nd (controls 3 of 9).
G55F+S63L: nd, 4.09, 4.10 (controls 3 of 9).
V50N+G55Y+G61Y: nd, nd, nd (controls 1 of 9).
L29H+G55W+R100K: nd, nd, nd (controls 0 of 9).
G55S+F59W+D106A: 0.86, 1.02, 1.00 (controls 1 of 9).
F27H+V50G+G55D: 4.43, nd, nd (controls 2 of 9).
G55D+A102P+S107I: 3.88, nd, nd (controls 0 of 9).
G55C+G99N+A101D: nd, nd, nd (controls 0 of 9).
G55Y+R56K+F105G: nd, nd, nd (controls 0 of 9).
S53W+G55C+R100P: nd, nd, nd (controls 0 of 9).
L29T+V50S+G55W: 3.93, 3.94, 4.82 (controls 8 of 9).
G55P: 4.51, nd, 5.31 (controls 1 of 9).
G55W+D62W+A102C: 4.36, nd, nd (controls 1 of 9).
G55N+S63V+T104L: nd, nd, nd (controls 0 of 9).
G55F+G61Y: nd, 3.04, nd (controls 0 of 9).
S31N+Y52F+G55L: nd, 2.96, nd (controls 0 of 9).
G55I+R57P+G103D: nd, 4.16, nd (controls 3 of 9).
T28A+G55H+D106W: nd, nd, nd (controls 2 of 9).
G33F+I34Y+G55C: nd, nd, nd (controls 0 of 9).

2 of these entries, quoted again:

{"changes": "G55E+R57D+G61S", "log10 Kd, replicates": "nd, nd, nd", "signal with controls": "0 of 9"}
{"changes": "G26V+G55F+R57N", "log10 Kd, replicates": "nd, nd, nd", "signal with controls": "1 of 9"}